The test system of test [1] is pancreatic amylase secretion. To be noted: cited from earlier work.
Another test deals with T1, calcitonin receptor (Rattus norvegicus, UniProt P32214).
T1 construct: host or cells: general text: 'CHO cells or T47D cells'
T1 sequence (P32214 25-479 isoform P32214-2 limits assumed): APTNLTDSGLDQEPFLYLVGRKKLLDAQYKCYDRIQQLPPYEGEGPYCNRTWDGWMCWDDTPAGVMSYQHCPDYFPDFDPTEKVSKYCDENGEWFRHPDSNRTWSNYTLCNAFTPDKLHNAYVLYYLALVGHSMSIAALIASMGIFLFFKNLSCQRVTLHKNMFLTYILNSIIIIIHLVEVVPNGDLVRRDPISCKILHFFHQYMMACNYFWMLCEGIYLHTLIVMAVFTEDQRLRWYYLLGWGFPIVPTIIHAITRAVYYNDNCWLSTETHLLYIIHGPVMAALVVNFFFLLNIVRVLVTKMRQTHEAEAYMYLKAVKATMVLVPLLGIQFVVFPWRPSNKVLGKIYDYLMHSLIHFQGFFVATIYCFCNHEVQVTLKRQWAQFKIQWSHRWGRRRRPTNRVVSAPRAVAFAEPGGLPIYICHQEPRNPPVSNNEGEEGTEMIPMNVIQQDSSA
The class given is binding. To be noted: read-out: IC50, CT RBA (C1A).

Turning to DY(SO3) MGWMDF-NH2 [CCK-8], the “potency in stimulating pancreatic amylase secretion relative to unsulfated CCK-8 or CCK-4” value in test [1] was “approximately 1000 fold”.

A word on the IC50: it is the concentration at which inhibition is half-maximal. “[Ser117, dLeu119]leptin(116-122)-Amylin(1-7)-[^11,18Arg]sCT(8-27) -Amylin(33-37) [Compound 16]”: the IC50 on calcitonin receptor turned out to be 0.063 nM.

These data come from patent publication US8076288B2 (priority 2004, dated 2011).
